# Assay results reported in article PMC3541233 (PLoS ONE, 2013).
# Sequences of proteins named here, by UniProt entry; tags and fusion partners are left off. Residues count along the entry.
# UniProt Q3L245, 26-602: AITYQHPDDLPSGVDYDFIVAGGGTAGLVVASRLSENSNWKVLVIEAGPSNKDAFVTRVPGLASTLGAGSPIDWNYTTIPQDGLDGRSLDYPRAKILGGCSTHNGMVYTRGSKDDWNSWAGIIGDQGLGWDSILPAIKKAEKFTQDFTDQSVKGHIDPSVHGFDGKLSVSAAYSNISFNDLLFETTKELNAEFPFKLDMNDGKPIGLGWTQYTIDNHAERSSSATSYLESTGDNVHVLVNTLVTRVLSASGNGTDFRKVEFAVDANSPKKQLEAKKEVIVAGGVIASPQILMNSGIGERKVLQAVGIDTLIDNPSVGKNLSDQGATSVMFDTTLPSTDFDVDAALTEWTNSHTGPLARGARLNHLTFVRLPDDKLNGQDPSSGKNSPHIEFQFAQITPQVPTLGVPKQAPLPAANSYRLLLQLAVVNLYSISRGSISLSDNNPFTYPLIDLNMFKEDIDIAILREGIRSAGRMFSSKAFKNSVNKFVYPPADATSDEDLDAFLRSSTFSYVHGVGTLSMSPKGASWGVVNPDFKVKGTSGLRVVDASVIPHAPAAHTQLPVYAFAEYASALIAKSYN
# Molecular target: AmPDH (pyranose dehydrogenase, PDH) (Macropsalliota meleagris, UniProt Q3L245)
# Parameters: gene pdh1
smiles,measurement,value
OC[C@H]1OC(O)[C@H](F)[C@@H](O)[C@@H]1O (stereo partly drawn) [2-fluoro-2-deoxy-D-glucose],anaerobic reduction of enzyme FAD monitored at 463 nm,The rate of reduction of PDH by 2-fluoro-2-deoxy-D-glucose (2FG) was significantly slower
